What was measured:
[1] = tested on: Sprague-Dawley adult male rats; test: Traumatic brain injury (lateral fluid percussion): ICP, CPP and pbtO2 monitoring; format: in vivo, rat
Description: Sprague-Dawley adult male rats were divided into 4 groups: vehicle, E2-SO4 (1 mg/kg), sham+vehicle and sham+E2-SO4; n=5/group. The TBI model was lateral fluid percussion injury (LFP), induced via a hydraulic pressure pulse to the anesthetized rat's exposed brain. This was introduced through a burr hole in the lateral skull prepared one day prior to LFP. A single iv dose of E2-SO4 or saline vehicle was administered 1 hr after LFP. Physiological parameters were measured 24 hr post-injury.
In a second experiment, the efficacy of E2-SO4 treatment for TBI in a lateral fluid percussion (LFP) model was examined. This involved 6 groups of rats (n=5/group). All rats received a craniectomy. Groups 1, 2, 4 and 5 received LFP injury. Groups 1 and 4 were treated with E2 (1 mg/kg) 1 hr post-injury, groups 2 and 5 were vehicle (Veh)-treated and groups 3 and 6 were sham. […] Relative standard uptake values (SUV) of upper half of brain to central value, fractional anisotropy (FA) and apparent diffusion coefficient (ADC) maps were calculated. […]
The clinical manifestation of edema after TBI can be seen as increased intracranial pressure, with lower brain perfusion pressure and reduced oxygen tension. […] FIG. 44 compares treatments for TBI with hormones, measured over a 120 min period to control the effects of the invasive probe on pressures. […]

[2] = Traumatic brain injury: weight loss or gain; format: in vivo, rat; settings: FIG. 45; after 7 d; vehicle-treated rats continue to lose weight
Source text: The same treatment also improves the injured rat's performance for memory and cognitive functions, which improve further over time. […] Since weight gain is the result of integration of several complex physiological processes (locomotion, wake/sleep cycles and circadian rhythms, olfactory and visual sensing, digestion, etc.) the preservation of weight gain indicates a highly significant benefit from estrogen treatment in TBI.

SMILES: C[C@]12CC[C@@H]3c4ccc(O)cc4CC[C@H]3[C@@H]1CC[C@@H]2O [17β-estradiol]
- intracranial pressure ([1]; FIG. 48, E2 treatment administered 24 hours after TBI): markedly reduces intracranial pressure
- ICP (intracranial pressure) ([1]; TBI (LFP), 1 mg/kg iv 1 hr after injury, measured 24 hr post-injury, TBI vehicle 17.4±0.5, sham 4.7): 7±0.4 mmHg
- weight gain after TBI [2]: resume weight gain nearly at the level as the uninjured sham controls

Source: patent US9359451B2, “Methods and compositions for treating trauma-hemorrhage using estrogen and derivatives thereof” (THE UAB RESEARCH FOUNDATION, priority 2012, dated 2016)
